Experiment: Ratio of LD50 to ED50 evaluated for its antiarrhythmic potency
Assay type: functional, Heart

Q: For `Cc1cccc(C)c1NC(=O)CC12CCCN1CCC2` [PILSICAINIDE], which Ratio is on record?
A: The Ratio was 17.08.
